Experimental data published in US8026252B2 (priority 2005, dated 2011).
Several values for one entry are separate records, joined by “and”; a condition that tells them apart may be missing. Identical values can stand only once. Like-named read-outs stand apart in the source and are kept apart here.

By UniProt entry, the sequences of proteins in these tests, tags left out. Where a name states a change or a piece, a line headed by the entry shows the natural chain unless it says otherwise.
UniProt P41145: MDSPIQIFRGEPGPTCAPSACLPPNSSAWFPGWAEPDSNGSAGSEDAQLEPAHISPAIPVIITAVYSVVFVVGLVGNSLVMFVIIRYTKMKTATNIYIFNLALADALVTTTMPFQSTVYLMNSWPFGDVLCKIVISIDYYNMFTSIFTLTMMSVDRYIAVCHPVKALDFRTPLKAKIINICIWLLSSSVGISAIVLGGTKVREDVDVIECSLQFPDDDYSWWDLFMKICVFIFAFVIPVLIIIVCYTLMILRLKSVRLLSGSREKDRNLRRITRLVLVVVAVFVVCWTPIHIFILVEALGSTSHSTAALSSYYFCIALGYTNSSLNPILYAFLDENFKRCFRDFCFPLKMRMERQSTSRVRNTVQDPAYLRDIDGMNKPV

Columns and labels:
human δ opioid receptor [1] = biological target: T1, human δ opioid receptor (Homo sapiens, UniProt P41143); assay: biochemical; conditions: [3H]Naltrindole (δ)
human κ opioid receptor [2] = biological target: T2, human κ opioid receptor (Homo sapiens, UniProt P41145); assay: biochemical; conditions: [3H]U69,593 (κ)
human κ opioid receptor [3] = biological target: T2, human κ opioid receptor; conditions: read-out: [3H]U69,593 (κ)
human δ opioid receptor [4] = biological target: T1, human δ opioid receptor; conditions: read-out: [3H]Naltrindole (δ)

Compound	Ki (human δ opioid receptor [1])	Ki (human κ opioid receptor [2])	Ki (human κ opioid receptor [3])	Ki (human δ opioid receptor [4])
CC[C@@]12CCN(CC3CC3)C(C(=O)c3ccc(C(=O)NCCc4ccc(-c5ccccc5)cc4)cc31)[C@@H]2C (mixture of isomers) [Example 21, (±)-3-(Cyclopropylmethyl)-6-ethyl-1,2,3,4,5,6-hexaahydro-cis-11-methyl-N-(2-[1,1′-biphenyl]-4-ylethyl)-1-oxo-2,6-methano-3-benzazocine-8-carboxamide]	13 ± 2.5 nM	5.1 ± 0.18 nM	–	–
CC1[C@@H]2Cc3ccc(C(=O)NCCc4ccccc4)cc3[C@@]1(C)CCN2CC1CC1 (mixture of isomers) [Example 11, (±)-3-(Cyclopropylmethyl)-1,2,3,4,5,6-hexahydro-cis-6,11-dimethyl-N-(2-phenylethyl)-2,6-methano-3-benzazocine-8-carboxamide]	–	–	1.7 ± 0.18 nM	59 ± 6.6 nM
CC1[C@@H]2Cc3ccc(C(=O)NCCCc4ccccc4)cc3[C@@]1(C)CCN2CC1CC1 (mixture of isomers) [Example 12, (±)-3-(Cyclopropylmethyl)-1,2,3,4,5,6-hexahydro-cis-6,11-dimethyl-N-(3-phenylpropyl)-2,6-methano-3-benzazocine-8-carboxamide]	–	–	3 ± 0.35 nM	47 ± 1.6 nM
CC1[C@@H]2Cc3ccc(C(=O)NCCc4ccc(Cc5ccccc5)cc4)cc3[C@@]1(C)CCN2CC1CC1 (mixture of isomers) [Example 27, (±)-3-(Cyclopropylmethyl)-1,2,3,4,5,6-hexahydro-cis-6,11-dimethyl-N-(4-benzylphenethyl)-2,6-methano-3-benzazocine-8-carboxamide]	–	–	1.6 ± 0.27 nM	5.9 ± 0.7 nM
CC1[C@@H]2Cc3ccc(C(=O)NCCc4cccc(Br)c4)cc3[C@@]1(C)CCN2CC1CC1 (mixture of isomers) [Example 30, (±)-3-(Cyclopropylmethyl)-1,2,3,4,5,6-hexahydro-cis-6,11-dimethyl-N-(3-bromophenethyl)-2,6-methano-3-benzazocine-8-carboxamide]	–	–	–	3.5 ± 0.19 nM
CC1[C@@H]2Cc3ccc(C(=O)NCCc4ccc(Oc5ccccc5)cc4)cc3[C@@]1(C)CCN2CC1CC1 (mixture of isomers) [Example 33, (±)-3-(Cyclopropylmethyl)-1,2,3,4,5,6-hexahydro-cis-6,11-dimethyl-N-(4-phenoxyphenethyl)-2,6-methano-3-benzazocine-8-carboxamide]	–	–	1.6 ± 0.3 nM	3.2 ± 0.3 nM
CC1[C@@H]2Cc3ccc(C(=O)NCCc4cccc(Oc5ccccc5)c4)cc3[C@@]1(C)CCN2CC1CC1 (mixture of isomers) [Example 34, (±)-3-(Cyclopropylmethyl)-1,2,3,4,5,6-hexahydro-cis-6,11-dimethyl-N-(3-phenoxyphenethyl)-2,6-methano-3-benzazocine-8-carboxamide]	–	–	13 ± 0.67 nM	95 ± 6.7 nM
CC1[C@@H]2Cc3ccc(C(=O)NCCc4ccccc4Oc4ccccc4)cc3[C@@]1(C)CCN2CC1CC1 (mixture of isomers) [Example 35, (±)-3-(Cyclopropylmethyl)-1,2,3,4,5,6-hexahydro-cis-6,11-dimethyl-N-(2-phenoxyphenethyl)-2,6-methano-3-benzazocine-8-carboxamide]	–	–	0.85 ± 0.07 nM	12 ± 1.9 nM
CC1[C@@H]2Cc3ccc(C(=O)NCCc4ccc5ccccc5c4)cc3[C@@]1(C)CCN2CC1CC1 (mixture of isomers) [Example 37, (±)-3-(Cyclopropylmethyl)-1,2,3,4,5,6-hexahydro-cis-6,11-dimethyl-N-(2-(naphthalen-2-yl)ethyl)-2,6-methano-3-benzazocine-8-carboxamide]	–	–	0.2 ± 0.056 nM	0.9 ± 0.02 nM
CC1[C@@H]2Cc3ccc(C(=O)NCCc4cccc5ccccc45)cc3[C@@]1(C)CCN2CC1CC1 (mixture of isomers) [Example 40, (±)-3-(Cyclopropylmethyl)-1,2,3,4,5,6-hexahydro-cis-6,11-dimethyl-N-(2-(naphthalen-1-yl)ethyl)-2,6-methano-3-benzazocine-8-carboxamide]	–	–	–	24 ± 1.2 nM
CC1[C@@H]2Cc3ccc(C(=O)NCCc4ccccc4Br)cc3[C@@]1(C)CCN2CC1CC1 (mixture of isomers) [Example 52, (±)-3-(Cyclopropylmethyl)-1,2,3,4,5,6-hexahydro-cis-6,11-dimethyl-N-(2-bromophenethyl)-2,6-methano-3-benzazocine-8-carboxamide]	–	–	19 ± 1.3 nM	150 ± 6.2 nM
CC1C2Cc3ccc(C(=O)NCCCCCc4ccccc4)cc3C1(C)CCN2CC1CC1 (racemic) [Example 61]	7.9 ± 0.12 nM	1.5 ± 0.1 nM	–	–
CC1C2Cc3ccc(C(=O)NCCc4cccnc4)cc3C1(C)CCN2CC1CC1 (racemic) [Example 69]	54 ± 1.3 nM	97 ± 3.1 nM	–	–
CC(NC(=O)c1ccc2c(c1)C1(C)CCN(CC3CC3)C(C2)C1C)c1ccccc1 (single isomer, unassigned) [Example 67]	> 10000 nM	130 ± 4 nM	–	–
CC(NC(=O)c1ccc2c(c1)C1(C)CCN(CC3CC3)C(C2)C1C)c1ccccc1 (single isomer, unassigned) [Example 68]	–	64 ± 4.3 nM	–	–
O=C(NCCc1ccc(-c2ccccc2)cc1)c1ccc2c3c1OC1C(=O)CCC4(O)C(C2)N(CC2CC2)CCC314 (single isomer, unassigned; (-)) [Example 71, (−)-Q-naltrexone]	34 ± 4.1 nM	22 ± 1.4 nM	–	–
CC1C2C(=O)c3ccc(C(=O)NCCc4ccc(-c5ccccc5)cc4)cc3C1(C)CCN2CC1CC1 (stereo not drawn) [Example 20]	3.9 ± 1.4 nM	1.3 ± 0.072 nM	–	–
CC(CNC(=O)c1ccc2c(c1)[C@@]1(C)CCN(CC3CC3)C(C2)[C@@H]1C)c1ccc(-c2ccccc2)cc1 (stereo partly drawn) [Example 46]	12 ± 0.11 nM	15 ± 1 nM	–	–
CC(Cc1ccc(-c2ccccc2)cc1)NC(=O)c1ccc2c(c1)[C@@]1(C)CCN(CC3CC3)C(C2)[C@@H]1C (stereo partly drawn) [Example 47]	7.6 ± 0.51 nM	11 ± 0.24 nM	–	–
COc1ccc(-c2ccc(CCNC(=O)c3ccc4c(c3)[C@@]3(C)CCN(CC5CC5)C(C4)[C@@H]3C)cc2)cc1 [Example 48]	–	–	1.5 ± 0.1 nM	0.18 ± 0.022 nM
C[C@H]1C2Cc3ccc(C(=O)NCCc4ccc(-c5ccc(Cl)cc5)cc4)cc3[C@@]1(C)CCN2CC1CC1 [Example 49]	–	–	3.2 ± 0.67 nM	0.71 ± 0.046 nM
C[C@H]1C2Cc3ccc(C(=O)NCCc4ccc(-c5cccc(Cl)c5)cc4)cc3[C@@]1(C)CCN2CC1CC1 [Example 50]	1.3 ± 0.19 nM	3.8 ± 0.13 nM	–	–
Cc1ccc(-c2ccc(CCNC(=O)c3ccc4c(c3)[C@@]3(C)CCN(CC5CC5)C(C4)[C@@H]3C)cc2)cc1 [Example 51]	–	–	3.3 ± 0.2 nM	0.72 ± 0.027 nM
C[C@H]1C2Cc3ccc(C(=O)NCCc4ccc(C(=O)NCCc5ccc(Br)cc5)cc4)cc3[C@@]1(C)CCN2CC1CC1 [Example 53]	30 ± 1.8 nM	5 ± 0.36 nM	–	–
C[C@H]1C2Cc3ccc(C(=O)NCCCCc4ccccc4)cc3[C@@]1(C)CCN2CC1CC1 [Example 60]	7.1 ± 0.39 nM	0.082 ± 0.0026 nM	–	–
O=C(NCCc1ccc(-c2ccccc2)cc1)c1ccc2c(c1)[C@@]13CCCC[C@@]1(O)[C@@H](C2)N(CC1CCC1)CC3 [Example 79, (−)-Q-butorphanol]	0.45 ± 0.039 nM	3.9 ± 0.47 nM	–	–
O=C1CC[C@@]2(O)[C@H]3Cc4ccc(C(=O)NCCc5ccc(-c6ccccc6)cc5)c(O)c4[C@@]2(CCN3CC2CC2)C1 [Example 81, Q-naltrexone ring opened]	3.7 ± 0.2 nM	1.9 ± 0.15 nM	–	–
(+)-3-(Cyclopropylmethyl)-1,2,3,4,5,6-hexahydro-cis-6,11-dimethyl-N-(2-[1,1′-biphenyl]-4-ylethyl)-2,6-methano-3-benzazocine-8-carboxamide [Example 17]	–	–	11 nM and 8.5 nM	–
(±)-3-(Cyclopropylmethyl)-1,2,3,4,5,6-hexahydro-cis-6,11-dimethyl-N-(2-[1,1′-biphenyl]-4-ylethyl)-2,6-methano-3-benzazocine-8-carboxamide [Example 15]	–	–	0.33 ± 0.015 nM	0.94 ± 0.045 nM
